Measurements as given in PubChem BioAssay AID1347075 (National Center for Advancing Translational Sciences (NCATS), 2019).
Values joined by “and” are separate entries in the source; they are usually repeats but may differ in a detail not shown here. Equal entries are not always repeated. Only a part is listed here, and it is no random draw. Some of these compounds have results that are not shown, active ones among them. Results filed as inconclusive are left out. Active and inactive are the calls of the source. Calls follow the shape of the dose curve; as a rule, active = well fitted cell-killing curve with a large enough effect; inconclusive = small, poorly fitted or top-dose-only effect, or effect the other way; inactive = flat fitted curve, though single readings scatter.
% is scaled to controls: 0 for no effect and ±100 for the full control effect.

Assay: qHTS assay for MDR1-selective chemotherapeutics: Primary screen using the parental adenocarcinoma cell KB-3-1; also: nearly all actives have a fitted effect of over 60% in size
Conditions: KB-3-1 viability, CellTiter-Glo ATP luminescence, 72 h; at 46.1 µM (top of the series)
Text: A prime difficulty in effectively treating cancer is the development of cellular resistance to multiple structurally unrelated anticancer drugs, a phenomenon known as multidrug resistance (MDR). […] Numerous strategies to overcome P-gp-mediated MDR have been explored, including the design of drugs that evade recognition and efflux, and development of inhibitors to block efflux and restore drug accumulation. […] An alternative approach is to exploit resistance by identifying drugs that target MDR cells over the non-resistant parental cells from which they were selected. […] The development of MDR1-selective agents represents a new strategy for resolving multidrug resistance, as it remains a long-standing clinical challenge for cancer chemotherapy.
Our goal is to identify compounds that selectively kill P-gp-expressing MDR cells. We will identify MDR1-selective compounds by comparing toxicity of compounds in the screening library against parental, drug-naive (KB-3-1) adenocarcinoma cells as well as their drug-selected MDR sub-line (KB-V1). The differential toxicity of compounds against these two cell lines will be used to identify MDR1-selective compounds, whose cytotoxicity is potentiated, rather than diminished, by P-gp expression. This assay will be utilized to conduct a quantitative high-throughput screen (qHTS) in collaboration with the NIH Chemical Genomics Center to identify selective agents, and probe hits arising from the screen will be validated using secondary assays and characterized through a well-established follow-up research program. This screen was run against the entire NCGC library collection of about 400,000 compounds.
NIH Molecular Libraries Probe Production Network [MLPCN]
NIH Chemical Genomics Center [NCGC]
PI: Michael Gottesman PhD, National Cancer Institute, NIH
Briefly, 5 microL of media containing either KB-3-1 cells (columns 1-2, 4-48) are dispensed into Greiner white, treated solid-bottom 1536-well assay plates (media-only control is added to column 3). Compounds are then transferred via Kalypsys pin tool equipped with 1536-pin array (10 nL slotted pins, V&P Scientific, San Diego, CA). Following addition of compound, the plates are incubated at 37 degrees C for 72 hours. CellTiter-Glo (2.5 µL/well) is then added, and the plates are read in a ViewLux reader (Perkin-Elmer, clear luminescence filter, 1 second exposure, 1x binning) following a 10 minute incubation. All cells are dispensed in DMEM phenol-red free media containing 10% FBS.
Library plates were screened starting from the lowest and proceeding to the highest concentration. Vehicle-only plates, with DMSO being pin-transferred to columns 5-48, will be inserted uniformly at the beginning and the end of each library in order to monitor and record any shifts in the background, which can be affected by reagent dispensers or loss in enzyme activity over time. Screening data will be corrected, normalized, and concentration-effect relationships will be derived by using publicly-available NCGC, NCATS curve fitting algorithms (http://ncgc.nih.gov/pub/openhts).
In the case of `Cc1ccc(C(=O)NCC2(N3CCCCC3)CCCCC2)cc1`, the activity change, negative = cytotoxic is reported as inactive: -4.33%. In the case of `CN(C)C1(CNC(=O)c2ccccc2F)CCCCC1`, the activity change, negative = cytotoxic is reported as inactive: 6.38%. In the case of `COc1cc(SC)ccc1C(=O)NCC1(N(C)C)CCCCC1`, the activity change, negative = cytotoxic is reported as inactive: 22.9%. With `CN(C)C1(CNC(=O)c2cccc(Cl)c2)CCCCC1` the activity change, negative = cytotoxic was inactive: -1.02%. For `CCN(CC)CC(C)C(C)OC(=O)C(O)(c1ccccc1)c1ccccc1` (stereo not given), the activity change, negative = cytotoxic was inactive: 4.88%. With `CC(C)N1C(=O)CC2(CCN(CCOC(=O)C(O)(c3ccccc3)c3ccccc3)CC2)C1=O` the activity change, negative = cytotoxic was inactive: 23.3%. With `CN1[C@@H]2CC[C@H]1CC(OC(=O)C(O)(c1ccccc1)c1ccccc1)C2` (stereo not given in full) the activity change, negative = cytotoxic was inactive: 0.624%. With `O=C(NCC1(N2CCCCC2)CCCCC1)c1cc([N+](=O)[O-])ccc1Cl` the activity change, negative = cytotoxic was inactive: -4.36%. For `CCOc1cccc(C(=O)NCC2(N(C)C)CCCCC2)c1`, the activity change, negative = cytotoxic was inactive: 11.1%. With `COc1ccc(C(=O)NCC2(N(C)C)CCCCC2)cc1` the activity change, negative = cytotoxic was inactive: 7.8%. For `O=C(NCC1(N2CCCCC2)CCCCC1)c1cccc(Br)c1`, the activity change, negative = cytotoxic was inactive: -14.7%. For `Cc1cc(C(=O)NCC2(N3CCCCC3)CCCCC2)ccc1[N+](=O)[O-]`, the activity change, negative = cytotoxic was inactive: 11.1%. In the case of `CCN1CCCC(OC(=O)C2(O)c3ccccc3C=Cc3ccccc32)C1` (stereo not given), the activity change, negative = cytotoxic is reported as inactive: 4.15%. For `O=C(NCC1(N2CCCCC2)CCCCC1)c1cc(F)c(F)cc1Cl`, the activity change, negative = cytotoxic was inactive: 4.08%. With `C=CCN1CCN(CCOC(=O)C(O)(c2ccccc2)c2ccccc2)CC1` the activity change, negative = cytotoxic was inactive: 1.3%. For `CCCCOc1ccccc1C(=O)NCC1(N(C)C)CCCCC1`, the activity change, negative = cytotoxic was inactive: 1.73%. In the case of `CN(C)C1CCCC1OC(=O)C(O)(c1ccccc1)c1ccccc1` (stereo not given), the activity change, negative = cytotoxic is reported as inactive: 13.6%. With `CN(C)c1ccc(C(=O)NCC2(N(C)C)CCCCC2)cc1` the activity change, negative = cytotoxic was inactive: 17.3%. With `CN(C)C1(CNC(=O)c2ccccc2[N+](=O)[O-])CCCCC1` the activity change, negative = cytotoxic was inactive: 13%. For `Cc1ccccc1C(=O)NCC1(N2CCCCC2)CCCCC1`, the activity change, negative = cytotoxic was inactive: -1.26%. In the case of `O=C(NCC1(N2CCCCC2)CCCCC1)c1cccc(Cl)c1`, the activity change, negative = cytotoxic is reported as inactive: -2.38%. For `COc1ccc(Cl)cc1C(=O)NCC1(N(C)C)CCCCC1`, the activity change, negative = cytotoxic was inactive: 6.89%. In the case of `COc1cccc(C(=O)NCC2(N3CCCCC3)CCCCC2)c1`, the activity change, negative = cytotoxic is reported as inactive: 0.0402%. For `COc1ccc(C(=O)NCC2(N(C)C)CCCCC2)cc1Cl`, the activity change, negative = cytotoxic was inactive: 6.32%. In the case of `COc1cc(C(=O)NCC2(N(C)C)CCCCC2)c([N+](=O)[O-])cc1OC`, the activity change, negative = cytotoxic is reported as inactive: -2.15%. With `CN(C)C1(CNC(=O)c2ccc(Br)cc2)CCCCC1` the activity change, negative = cytotoxic was inactive: -6.16%. For `CC(C)Oc1ccc(C(=O)NCC2(N(C)C)CCCCC2)cc1`, the activity change, negative = cytotoxic was inactive: 1.35% and inactive: 9.61%. In the case of `CN(C)c1cccc(C(=O)NCC2(N(C)C)CCCCC2)c1`, the activity change, negative = cytotoxic is reported as inactive: -3.45%. With `C=C(C)C#CC(O)(C(=O)OC1CCN(C)CC1)c1ccccc1` (stereo not given) the activity change, negative = cytotoxic was inactive: 9.04%. With `COc1ccc(Br)c(C(=O)NCC2(N3CCCCC3)CCCCC2)c1` the activity change, negative = cytotoxic was inactive: -0.885%. In the case of `Cc1cccc(C(=O)NCC2(N(C)C)CCCCC2)c1`, the activity change, negative = cytotoxic is reported as inactive: 1.01%. In the case of `COc1cc(C(=O)NCC2(N(C)C)CCCCC2)cc(OC)c1OC`, the activity change, negative = cytotoxic is reported as inactive: -2.58%. In the case of `CC(C)COc1ccc(C(=O)NCC2(N(C)C)CCCCC2)cc1`, the activity change, negative = cytotoxic is reported as inactive: -4.89%. In the case of `COc1cccc(C(=O)NCC2(N3CCOCC3)CCCCC2)c1`, the activity change, negative = cytotoxic is reported as inactive: -0.555%. With `O=C(OC1CN2CCC1CC2)C(CO)(c1ccccc1)c1ccccc1` (stereo not given) the activity change, negative = cytotoxic was inactive: 2.23%.
